Source: patent US20140023611A1 (priority 2010, published 2014)
One block for each compound: values may come before it.

By UniProt entry, the sequences of proteins in these tests, tags left out.
UniProt Q9JJ09, whole entry: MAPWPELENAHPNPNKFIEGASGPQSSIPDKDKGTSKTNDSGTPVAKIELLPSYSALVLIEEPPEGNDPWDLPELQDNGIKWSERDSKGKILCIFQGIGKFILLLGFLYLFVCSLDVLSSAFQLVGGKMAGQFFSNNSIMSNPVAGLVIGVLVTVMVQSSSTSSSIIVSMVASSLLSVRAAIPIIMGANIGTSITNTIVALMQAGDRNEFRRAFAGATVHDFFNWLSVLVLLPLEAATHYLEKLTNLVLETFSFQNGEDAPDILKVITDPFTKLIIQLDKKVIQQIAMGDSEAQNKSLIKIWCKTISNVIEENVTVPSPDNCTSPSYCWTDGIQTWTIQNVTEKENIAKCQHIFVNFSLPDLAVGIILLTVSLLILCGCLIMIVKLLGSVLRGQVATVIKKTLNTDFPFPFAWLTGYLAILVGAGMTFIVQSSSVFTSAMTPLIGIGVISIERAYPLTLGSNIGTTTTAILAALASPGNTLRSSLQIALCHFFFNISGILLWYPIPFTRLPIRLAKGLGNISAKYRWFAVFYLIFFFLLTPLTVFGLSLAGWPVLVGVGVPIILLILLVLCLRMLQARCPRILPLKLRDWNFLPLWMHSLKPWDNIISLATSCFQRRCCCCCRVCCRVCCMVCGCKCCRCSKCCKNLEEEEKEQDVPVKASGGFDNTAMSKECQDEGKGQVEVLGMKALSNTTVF
UniProt O95436, whole entry: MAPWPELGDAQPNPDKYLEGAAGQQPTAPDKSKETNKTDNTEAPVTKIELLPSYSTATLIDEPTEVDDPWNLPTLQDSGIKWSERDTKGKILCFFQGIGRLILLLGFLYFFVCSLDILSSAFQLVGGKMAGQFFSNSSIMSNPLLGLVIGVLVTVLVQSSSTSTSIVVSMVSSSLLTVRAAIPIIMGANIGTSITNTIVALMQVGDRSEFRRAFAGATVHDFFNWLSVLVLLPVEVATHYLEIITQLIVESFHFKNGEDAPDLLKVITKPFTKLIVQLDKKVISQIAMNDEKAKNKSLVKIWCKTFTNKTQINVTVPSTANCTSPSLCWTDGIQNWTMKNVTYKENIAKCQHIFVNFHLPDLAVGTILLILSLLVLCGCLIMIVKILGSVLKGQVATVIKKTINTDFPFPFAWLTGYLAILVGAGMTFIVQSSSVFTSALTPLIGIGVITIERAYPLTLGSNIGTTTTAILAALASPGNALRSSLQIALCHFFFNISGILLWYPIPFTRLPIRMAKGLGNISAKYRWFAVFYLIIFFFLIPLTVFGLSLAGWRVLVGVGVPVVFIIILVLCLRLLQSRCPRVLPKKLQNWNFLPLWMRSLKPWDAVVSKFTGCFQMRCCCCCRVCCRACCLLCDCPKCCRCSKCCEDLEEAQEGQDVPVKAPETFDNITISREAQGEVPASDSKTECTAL

Columns and labels:
rat NaP2b (SLC34A2) [1] = molecular target: T1, rat NaP2b (SLC34A2) (Rattus norvegicus, UniProt Q9JJ09); assay: NaP2b-mediated Pi transport (33P uptake) in transfected HEK293 cells, rat NaP2b; conditions: Structure (V) examples
[2] = tested on: uptake of phosphate from the intestine; assay: In vivo assay: bolus phosphorus (phosphate) challenge; conditions: Structure (V) examples, Table 4, rat, oral 30 mg/kg
rat NaP2b (SLC34A2) [3] = molecular target: T1, rat NaP2b (SLC34A2); assay: Inhibition of NaP2b-mediated Pi (33P) uptake in transfected HEK293 cells, rat NaP2b; conditions: 33P Pi uptake, 0.1 mM phosphate, value given as pIC50 range
human NaP2b (SLC34A2) = human NaP2b (SLC34A2) (Homo sapiens, UniProt O95436); assay: Inhibition of NaP2b-mediated Pi (33P) uptake in transfected HEK293 cells, human NaP2b; conditions: 33P Pi uptake, 0.1 mM phosphate, value given as pIC50 range

SMILES: O=C(Nc1ccc(N2CCCCC2)cc1C(=O)N/N=C/c1ccc(Cl)c(C(F)(F)F)c1)c1cccc(Cn2cc(CCO)cn2)c1
pIC50 Range (rat NaP2b (SLC34A2) [1]; Table 2): 6.1-7.0
% Decrease in serum [Pi] [2]: 24%
Serum increase [Pi] mg/dL from baseline low PI state ([2]; mean ± SD, vehicle 5.0 ± 1.3): 3.8 ± 0.7 mg/dL

SMILES: O=C(Nc1ccc(N2CCCCC2)cc1C(=O)N/N=C/c1ccc(Cl)c(C(F)(F)F)c1)c1cccc(Cn2cc[n+](CCO)c2)c1
pIC50 Range (rat NaP2b (SLC34A2) [1]; Table 2, tested form: bromide): 5.1-6.0

Next, values leading:

pIC50 range for rat Nap2b (rat NaP2b (SLC34A2) [3]): 5.1-6.0
SMILES: CCN(CC)c1ccc(NC(=O)c2cccc(CCCOCCOCCOCCOCCNS(=O)(=O)c3ccc(O)c(C(=O)O)c3)c2)c(-c2cc(C(=O)N[C@H]3CCCc4ccccc43)ccn2)c1

pIC50 range for rat Nap2b (rat NaP2b (SLC34A2) [3]): 5.1-6.0
pIC50 range for human NaP2b (human NaP2b (SLC34A2)): 5.1-6.0
SMILES: CCN(CC)c1ccc(NC(=O)c2cccc(CCCOCCOCCOCCOCCNC(=O)c3ccc(CCCOCCOCCOCCOCCC(=O)O)cc3)c2)c(-c2cc(C(=O)NCc3cccc(C(F)(F)F)c3)ccn2)c1

pIC50 range for rat Nap2b (rat NaP2b (SLC34A2) [3]): 5.1-6.0
SMILES: O=C(O)CCSCc1cccc(C(=O)Nc2ccc(N3CCCCC3)cc2-c2cc(C(=O)NCc3ccccc3)ccn2)c1
